Data: patent US7728037B2, “Alpha-ketoglutarates of active ingredients and compositions containing same” (Sigma-Tau Industrie Farmaceutiche Riunite S.p.A., priority 2001, dated 2010)

Assay: Absorption tests: L-carnitine assay on blood samples after oral administration
Description: For these tests a batch of male Sprague Dawley rats with a mean body weight of 250 g was used.

[1] = rats fasted 24 h, oral 1 g/kg L-carnitine alpha-ketoglutarate or equimolar dose, blood sampled at 1, 2 and 4 hours

Substance: L-carnitine alpha-ketoglutarate
- absorption (in words) (oral, rats): well absorbed
- peak L-carnitine blood concentration [1]: 166.5 ± 20.1 nmol/L
- time at which L-carnitine concentrations reached their peak [1]: 1 h
